Measurements from patent US20080076812A1, “Formulations of sitaxsentan sodium” (priority 2006, published 2008).

Assay: Drug-excipient compatibility study
Settings: binary drug/excipient mixture, 40° C./75% RH open bottle; sodium salt

Structure (SMILES): Cc1cc2c(cc1CC(=O)c1sccc1S(=O)(=O)[N-]c1onc(C)c1Cl)OCO2.[Na+] [Sitaxsentan Sodium, N-(4-chloro-3-methyl-5-isoxazolyl)-2-[2-methyl-4,5-(methylenedioxy)phenylacetyl]-thiophene-3-sulfonamide, sodium salt]
- Assay (%) T = 2 Weeks: 100.7%
- Assay (%) T = 4 Weeks: 100.8% and 100.9%

Values joined by “and” are separate entries in the source; they are usually repeats but may differ in a detail not shown here. Equal entries are not always repeated.
